Screening data: PubChem BioAssay, Broad Institute
Only some compounds are listed: those with a hit (about 1.8% of all), similar ones and a draw of the others.
E-sel inducer: E-selectin induction on HUVECs; P16581; HUVEC E-selectin immunofluorescence imaging; normalized: neutral wells 0, TNF-alpha wells 100; activation, % at 7.58 µM; 260,000 tested, 0.37% active;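 active = mean E-selectin-positive cell signal at least 10% of the positive control, reached in at least 60% of replicates, without over 20% cell loss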
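assay system = HUVEC, human umbilical vein endothelial cells | input = 3,000 HUVEC seeded per well | medium = EGM-2 growth medium on 0.1% gelatin-coated wells | dosing = one compound dose added by pin transfer | signal = immunofluorescence imaging | read-out basis = % PE-positive cells | control set = TNF-alpha, DMSO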
Yeast UUG start: modulators of start codon recognition fidelity in yeast. S. cerevisiae UUG-firefly luciferase reporter, luminescence/redox ratio. activity score, % at 18.7 µM. 0.13% of 350,000 active. AID 602363;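 active = replicate mean at a twofold rise or more, about +100% in these data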;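 also: firefly luciferase made from a UUG start codon reports start codon fidelity; reporter light over untreated wells divided by growth signal over untreated wells; some hits fall short of that in this replicate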
SIRT5 block: inhibitors of human sirtuin-5 desuccinylase; Q9NXA8; inhibition, % at 15 µM; 330,000 tested, 1.1% active; AID 652115; Purified SirT5, succinyl-peptide AMC, trypsin-coupled fluorescence; in the data active = inhibition above about 15%
RAD52 inh: inhibitors of human RAD52 DNA annealing. P43351. recombinant RAD52 DNA annealing, FRET fluorescence. inhibition, % at 18.7 µM. 360,000 tested, 0.46% active. AID 651710;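 active = every replicate showing at least 50% inhibition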
MLL AF4-AF9 inh: MLL-AF4/AF9 protein interaction inhibition; 350,000 tested, 0.47% active; inhibition, % at 10 µM; AlphaScreen, biotin-AF4 peptide binding to FLAG-AF9; AID 651704;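 active = every replicate reaching a set inhibition limit, whatever the replicate mean, cut at about 25% in these data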;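 note: 0% = plate neutral control median and 100% = total signal loss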
RAD54 inh: inhibitors of human RAD54 branch migration. RAD54 Holliday junction branch migration, FAM/BHQ fluorescence. AID 602329. Q92698. inhibition, % at 10.4 µM. 360,000 tested, 0.14% active;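 active = mean normalized replicate activity at least 40 and at least half of replicates scoring 40 or more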;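 note: 0% = median of neutral control wells and 100% = median of positive control wells; inhibitors cause a drop in the FAM fluorescence signal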
The depositor's hits bear a star; . = no result given.

Short keys: A = E-sel inducer; B = Yeast UUG start; C = SIRT5 block; D = RAD52 inh; E = MLL AF4-AF9 inh; F = RAD54 inh
1	C[C@@H]1CN([C@H](C)CO)C(=O)Cc2cc(NC(=O)CCCCCC(=O)Nc3ccccc3N)ccc2O[C@H]1CN(C)Cc1ccc(Cl)c(Cl)c1
  A: -0.1 | B: . | C: 6.9 | D: -17.2 | E: 2.1 | F: .
2	C[C@H]1CN([C@@H](C)CO)C(=O)Cc2cc(NC(=O)CCCCCC(=O)Nc3ccccc3N)ccc2O[C@@H]1CN(C)Cc1ccc(Cl)c(Cl)c1
  A: -5.0 | B: 2.7 | C: . | D: -15.2 | E: -0.6 | F: 0.6
3	C[C@@H]1CN([C@H](C)CO)C(=O)c2cc(NC(=O)CCCCCC(=O)Nc3ccccc3N)ccc2O[C@@H]1CN(C)Cc1ccc(Cl)c(Cl)c1
  A: 7.0 | B: -4.6 | C: 24.1* | D: 37.5 | E: 4.9 | F: 0.9
4	C[C@H]1CN([C@@H](C)CO)C(=O)c2cccc(NC(=O)CCCCCC(=O)Nc3ccccc3N)c2O[C@@H]1CN(C)Cc1ccc(Cl)c(Cl)c1
  A: -6.6 | B: . | C: -1.3 | D: -28.0 | E: -1.4 | F: .
5	C[C@@H]1CN([C@H](C)CO)C(=O)c2cccc(NC(=O)CCCCCC(=O)Nc3ccccc3N)c2O[C@H]1CN(C)Cc1ccc(Cl)c(Cl)c1
  A: -2.7 | B: . | C: 15.4* | D: 10.9 | E: 0.3 | F: .
6	C[C@H]1CN([C@@H](C)CO)C(=O)c2cc(NC(=O)CCCCCC(=O)Nc3ccccc3N)ccc2O[C@H]1CN(C)Cc1ccc(Cl)c(Cl)c1
  A: 5.9 | B: -6.0 | C: 21.2* | D: 28.5 | E: 0.7 | F: -1.1
7	CCC(=O)N1[C@@H]2c3cccc(=O)n3C[C@@H]2[C@@H](CO)[C@@H]1C(=O)NC1CCCC1
  A: -0.3 | B: . | C: 0.2 | D: 16.5 | E: -22.0 | F: .
8	CCCNC(=O)Nc1ccc2c(c1)OC[C@H](C)N(Cc1cncnc1)C[C@@H](C)[C@@H](OC)CN(C)C2=O
  A: 0.1 | B: -2.7 | C: -6.2 | D: -13.8 | E: -0.9 | F: -3.1
9	COc1ccc(OCC(=O)Nc2ccc(NC(=O)c3cccs3)cc2)cc1
  A: 0.5 | B: -26.5 | C: 102.2* | D: -5.5 | E: -1.5 | F: 14.5
10	C[C@H](CO)N1C[C@H](C)[C@H](CN(C)C(=O)c2ccccc2F)Oc2cc(-c3ccccc3)ccc2S1(=O)=O
  A: 0.0 | B: 1.2 | C: . | D: . | E: . | F: .
11	C[C@@H]1CCCCO[C@H](CN(C)Cc2ccc(Cl)c(Cl)c2)[C@@H](C)CN([C@@H](C)CO)C(=O)c2cc(N(C)C)ccc2O1
  A: 0.1 | B: . | C: -5.9 | D: -24.7 | E: 60.8* | F: -5.0
12	C[C@@H]1CCCCO[C@@H](CN(C)Cc2ccc(Cl)c(Cl)c2)[C@H](C)CN([C@@H](C)CO)C(=O)c2cc(N(C)C)ccc2O1
  A: -0.3 | B: . | C: 7.3 | D: 2.2 | E: 40.2* | F: .
13	C[C@@H]1CCCCO[C@@H](CN(C)Cc2ccc3c(c2)OCO3)[C@@H](C)CN([C@H](C)CO)C(=O)c2cc(N(C)C)ccc2O1
  A: 0.0 | B: 9.7 | C: -4.2 | D: 7.8 | E: 15.4 | F: -12.7
14	C[C@@H]1CCCCO[C@@H](CN(C)Cc2ccc(Cl)c(Cl)c2)[C@H](C)CN([C@H](C)CO)C(=O)c2cc(N(C)C)ccc2O1
  A: -0.1 | B: . | C: -2.2 | D: -43.8 | E: 60.7* | F: 6.7
15	C[C@@H]1CCCCO[C@H](CN(C)Cc2ccc3c(c2)OCO3)[C@H](C)CN([C@H](C)CO)C(=O)c2cc(N(C)C)ccc2O1
  A: -0.2 | B: 3.2 | C: 2.2 | D: 3.5 | E: 5.6 | F: 7.7
16	C[C@@H]1CN([C@H](C)CO)C(=O)c2cc(N(C)C)ccc2O[C@@H](C)CCCCO[C@@H]1CN(C)Cc1ccncc1
  A: -0.2 | B: 12.9 | C: -1.6 | D: -7.8 | E: 2.7 | F: 1.7
17	COCC(=O)Nc1ccc2c(c1)C(=O)N(C)C[C@H](OC)[C@H](C)CN(CCc1ccccc1)[C@H](C)CO2
  A: -0.3 | B: -9.4 | C: -1.8 | D: -4.5 | E: 4.8 | F: -0.3
18	CC(C)C[C@@H](CNCC(=O)[C@H](Cc1c[nH]c2ccccc12)NC(=O)c1[nH]cnc1C(=O)N[C@@H](C)CN)NC(=O)c1nc[nH]c1C(=O)N[C@@H](CC(=O)O)C(=O)O
  A: 0.1 | B: 154.3* | C: -1.3 | D: -15.7 | E: 2.9 | F: -5.1
19	CC(C)C[C@@H](CNCC(=O)[C@H](Cc1c[nH]c2ccccc12)NC(=O)c1[nH]cnc1C(=O)N[C@H](CN)CC(C)C)NC(=O)c1nc[nH]c1C(=O)N[C@@H](CC(=O)O)C(=O)O
  A: -0.1 | B: 154.2* | C: -1.3 | D: -23.6 | E: 3.6 | F: -17.9
20	CC(C)C[C@@H](CNCC(=O)[C@H](Cc1c[nH]c2ccccc12)NC(=O)c1[nH]cnc1C(=O)N[C@@H](C)CN)NC(=O)c1nc[nH]c1C(=O)N[C@@H](C)C(=O)O
  A: -0.1 | B: 141.4* | C: -1.2 | D: -5.9 | E: 7.9 | F: -7.1
21	CC(C)C[C@@H](CN)NC(=O)c1nc[nH]c1C(=O)N[C@@H](Cc1ccccc1)C(=O)CNC[C@H](C)NC(=O)c1nc[nH]c1C(=O)N[C@@H](CC(=O)O)C(=O)O
  A: 13.0 | B: 12.7 | C: . | D: -14.2 | E: 0.7 | F: -12.9
22	CCCC#Cc1ccc([C@@H]2[C@@H](CO)N3C(=O)CN(C(=O)Nc4ccccc4F)C[C@H]23)cc1
  A: 1.1 | B: . | C: 1.2 | D: -23.0 | E: 1.8 | F: .
23	O=c1cc(-c2cccnc2)oc2c1ccc1ccccc12
  A: . | B: -7.4 | C: -3.8 | D: 8.8 | E: -1.1 | F: 60.2*
24	CCCCCCCCOC(=O)c1c(CSC(=N)N)n(C)c2cc(Br)c(OC(C)=O)cc12
  A: . | B: -16.7 | C: 3.8 | D: 82.6* | E: 5.7 | F: -1.1
25	COc1ccc(NC(=O)C2CCCN(c3cnccn3)C2)c(OC)c1 (stereo not given)
  A: . | B: -4.1 | C: 16.4* | D: -6.4 | E: 3.0 | F: -5.2
26	C[C@@H]1CN([C@H](C)CO)C(=O)c2cc(NC(=O)c3ccncc3)ccc2O[C@@H](C)CCCCO[C@@H]1CN(C)C(=O)c1ccccc1
  A: 1.1 | B: -1.0 | C: -0.1 | D: 7.0 | E: -2.4 | F: -8.9
27	Cc1ccc(NCCCCO)cc1C
  A: 142.0* | B: -9.4 | C: 0.9 | D: -40.5 | E: 3.7 | F: -8.6
28	Cc1ccc(N(CN2C(=O)c3ccccc3C2=O)C(=O)c2ccc([N+](=O)[O-])cc2[N+](=O)[O-])cc1
  A: 0.7 | B: . | C: 112.0* | D: -13.3 | E: 17.8 | F: .
29	O=C1c2ccccc2C(=O)N1CN(C(=O)c1ccccc1[N+](=O)[O-])c1ccc(F)cc1
  A: 0.1 | B: 5.3 | C: 0.2 | D: -9.3 | E: 8.8 | F: 1.1
30	COc1cccc(S(=O)(=O)N(C)C[C@@H]2Oc3cc(C4=CCCCC4)ccc3S(=O)(=O)N([C@@H](C)CO)C[C@@H]2C)c1
  A: 0.2 | B: . | C: 21.4* | D: -18.0 | E: 5.0 | F: -1.3

Part of the list above, in transposed form.
#8 CCCNC(=O)Nc1ccc2c(c1)OC[C@H](C)N(Cc1cncnc1)C[C@@H](C)[C@@H](OC)CN(C)C2=O
#9 COc1ccc(OCC(=O)Nc2ccc(NC(=O)c3cccs3)cc2)cc1
#10 C[C@H](CO)N1C[C@H](C)[C@H](CN(C)C(=O)c2ccccc2F)Oc2cc(-c3ccccc3)ccc2S1(=O)=O
assay / compound	8	9	10
E-sel inducer	0.1	0.5	0.0
Yeast UUG start	-2.7	-26.5	1.2
SIRT5 block	-6.2	102.2*	.
RAD52 inh	-13.8	-5.5	.
MLL AF4-AF9 inh	-0.9	-1.5	.
RAD54 inh	-3.1	14.5	.

The listing continues.
Short keys: A = E-sel inducer; B = Yeast UUG start; C = SIRT5 block; D = RAD52 inh; E = MLL AF4-AF9 inh; F = RAD54 inh
31	COc1cccc(S(=O)(=O)N(C)C[C@H]2Oc3cc(C4=CCCC4)ccc3S(=O)(=O)N([C@H](C)CO)C[C@H]2C)c1
  A: 3.4 | B: -15.5 | C: 21.3* | D: -1.8 | E: -1.7 | F: -6.1
32	COc1cccc(S(=O)(=O)N(C)C[C@H]2Oc3cc(C4=CCCC4)ccc3S(=O)(=O)N([C@@H](C)CO)C[C@@H]2C)c1
  A: 0.4 | B: -9.4 | C: 21.2* | D: 8.5 | E: 0.7 | F: -9.0
33	COc1cccc(S(=O)(=O)N(C)C[C@H]2Oc3cc(C4=CCCCC4)ccc3S(=O)(=O)N([C@H](C)CO)C[C@H]2C)c1
  A: 0.9 | B: . | C: . | D: . | E: . | F: .
34	COc1cccc(S(=O)(=O)N(C)C[C@H]2Oc3cc(C4=CCCC4)ccc3S(=O)(=O)N([C@H](C)CO)C[C@@H]2C)c1
  A: 0.0 | B: -2.9 | C: 3.2 | D: -0.2 | E: 0.6 | F: 2.7
35	C[C@@H]1CN([C@H](C)CO)C(=O)c2cc(-c3ccccc3F)cnc2O[C@@H]1CN(C)Cc1cccc(C(=O)O)c1
  A: 0.3 | B: -11.4 | C: 0.1 | D: 5.1 | E: -9.9 | F: 5.4
